Values of other authors in patent publication US20070292421A1, “Method for treating preeclampsia” (priority 2005, published 2007).

Details: upper value (14.5) after a 2 mg/kg dose

Question: With “Pexelizumab: recombinant single-chain antibody fragment that binds human C5 and blocks generation of C5a (Alexion Pharmaceuticals)” as the substance, how does the elimination half life read?
Answer: 7.0 to 14.5 h
